According to patent publication US9139585B2 (Merck Sharp & Dohme Corp., priority 2011, dated 2015):
pIC50: −log10 of the molar value.

Amino acid sequences for entries named in this document (tags omitted).
UniProt P48048, whole entry, species assumed: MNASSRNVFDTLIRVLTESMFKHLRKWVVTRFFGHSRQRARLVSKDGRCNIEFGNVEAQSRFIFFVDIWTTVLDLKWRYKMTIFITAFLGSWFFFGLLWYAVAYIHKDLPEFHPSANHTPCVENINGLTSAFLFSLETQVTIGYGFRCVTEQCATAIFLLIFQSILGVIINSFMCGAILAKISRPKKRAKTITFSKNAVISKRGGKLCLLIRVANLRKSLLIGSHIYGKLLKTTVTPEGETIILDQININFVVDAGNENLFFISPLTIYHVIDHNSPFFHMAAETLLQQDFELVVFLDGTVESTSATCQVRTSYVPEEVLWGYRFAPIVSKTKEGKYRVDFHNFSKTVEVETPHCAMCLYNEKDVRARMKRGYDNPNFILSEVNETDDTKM

Assays:
[1] = biological target: hROMK (hKir1.1) (Homo sapiens (Human), UniProt P48048); experiment: Thallium Flux Assay (ROMK channel functional thallium flux, FLIPR-Tetra); assay type: cell-based; details: HEK293 cells stably expressing hROMK (hKir1.1)
Method: Another ROMK functional assay makes use of the ability of thallium to permeate through open ROMK channels and increase the fluorescence of a dye previously loaded into the cells. Under control conditions, cells loaded with dye and exposed to thallium-containing medium display a time-dependent increase in fluorescence, the rate of which depends on number of functional channels. When cells are incubated in the presence of a channel inhibitor, the increase in fluorescence is attenuated in a concentration-dependent manner, and IC50 values of inhibition by compounds can be accurately determined. This assay has been established with cell lines expressing either human, or rat ROMK channels, and operates in 384-well format.
HEK293 cells stably expressing hROMK (hKir1.1) were grown at 37° C. in a 10% CO2 humidified incubator in complete growth media: Dulbecco's Modified Eagle Medium supplemented with non-essential amino acids, Penicillin/Streptomycin/Glutamine, G418 and FBS. At >80% confluency, the media was aspirated from the flask and the sample was rinsed with 10 ml Calcium/Magnesium-free PBS. […] To dislodge the cell, the side of the flask was gently banged with a hand. The cells were triturated completely and then transferred to 25 ml complete media. The sample was then centrifuged at 1,500 rpm for 6 minutes, followed by resuspension in complete growth media and then cell concentration was determined. […] Under ideal growth conditions and appropriate tissue culture practices, this cell line is stable for 40-45 passages.
FluxOR Kit Components (Invitrogen F10017)
• FluxOR™ Reagent (Component A) • FluxOR™ Assay Buffer (Component B)—10× Concentrate • PowerLoad™ Concentrate (Component C)—100× Concentrate • Probenecid (Component D)—Lyophilized sample is kept at −20° C. Water soluble, 100× after solubilization in 1 ml water. […] Store at 4° C. • Thallium sulfate (Tl2SO4) Concentrate (Component G)—50 mM in water. Store at 4° C. • DMSO (dimethyl sulfoxide, Component H)—1 ml (100%) Reagent Preparation— FluxOR Working Solutions • 1000× FluxOR™ Reagent: Reconstitute a vial of component A in 100 μl DMSO; Mix well; Store 10 μl aliquots at −20° C. • 1× FluxOR™ Assay Buffer: Dilute Component B 10-fold with water; Adjust pH to 7.4 with Hepes/NaOH; Filter and store at 4° C. • Probenecid/Assay Buffer: 100 ml of 1× FluxOR™ Assay Buffer; 1 ml of reconstituted component D; Store at 4° C. • Loading Buffer (per microplate): 10 μl 1000× FluxOR™ Reagent; 100 μl component C; 10 ml Probenecid/Assay Buffer • Compound Buffer (per microplate): 20 ml Probenecid/Assay Buffer; 0.3 mM ouabain (10 mM ouabain in water can be stored in amber bottle/aluminum foil at room temperature);
Test compound • 1× FluxOR™ Chloride-Free Buffer: Prepare 1× working solution in water. Can be stored at room temperature • Stimulant Buffer (prepared at 5× final concentration in 1× FluxOR™ Chloride-Free Buffer): 7.5 mM Thallium sulfate and 0.75 mM Potassium sulfate (to give a final assay concentration of 3 mM Thallium/0.3 mM Potassium). Store at 4° C. when not in use. If kept sterile, this solution is good for months. Assay Protocol—
The ROMK channel functional thallium flux assay is performed in 384 wells, using the FLIPR-Tetra instrument. HEK-hKir1.1 cells are seeded in Poly-D-Lysine microplates and kept in a 37° C.-10% CO2 incubator overnight. On the day of the experiment, the growth media is replaced with the FluxOR™ reagent loading buffer and incubated, protected from light, at ambient temperature (23-25° C.) for 90 min. The loading buffer is replaced with assay buffer±test compound followed by 30 min incubation at ambient temperature, where the Thallium/Potassium stimulant is added to the microplate.
• 1. Seed HEK-hKir1.1 cells (50 μl at 20,000 cells/well) in 384-well PDL coated Microplates • 2. Allow cells to adhere overnight in humidified 37° C./10% CO2 incubator • 3. Completely remove cell growth media from microplate and replace with 25 μl loading buffer • 4.

[2] = biological target: Kir1.1 (ROMK1) (Homo sapiens (Human), UniProt P48048); experiment: Electrophysiology Assay (whole cell voltage clamp, IonWorks Quattro); assay type: cell-based; details: Chinese hamster ovary cells stably expressing Kir1.1; block during voltage step to 0 mV; read-out: EP Assay IC50
Description: Several assays may be used to measure functional inhibition of the ROMK channel by compounds of the instant invention. One assay that can be used is an electrophysiology assay that measures the electrical current that is generated as potassium permeates through the channel.
Block of Kir1.1 (ROMK1) currents was examined by whole cell voltage clamp (Hamill et. al. Pfluegers Archives 391:85-100 (1981)) using the IonWorks® Quattro automated electrophysiology platform (Molecular Devices, Sunnyvale, Calif.). Chinese hamster ovary cells stably expressing Kir1.1 channels were maintained in T-75 flasks in cell culture media in a humidified 10% CO2 incubator at 37° C. Prior to an experiment, Kir1.1 expression was induced by overnight incubation with 1 mM sodium butyrate. On the day of the experiment, cells were dissociated with 2.5 ml of Versene™ (Invitrogen 15040-066) for approximately 6 minutes at 37° C. and suspended in 10 ml of bath solution containing (in mM): 150 NaCl, 10 KCl, 2.7 CaCl2, 0.5 MgCl2, 5 HEPES, pH 7.4. After centrifugation, the cell pellet was resuspended in approximately 4.0 ml of bath solution and placed in the IonWorks® instrument. The intracellular solution consisted of (in mM): 80 K gluconate, 40 KCl, 20 KF, 3.2 MgCl2, 3 EGTA, 5 Hepes, pH 7.4. Electrical access to the cytoplasm was achieved by perforation in 0.13 mg/ml amphotericin B for 4 minutes. Amphotericin B (Sigma A-4888) was prepared as a 40 mg/ml solution in DMSO.
Voltage protocols and current recordings were performed using the IonWorks® HT software/hardware system. Currents were sampled at 1 kHz. No correction for liquid junction potentials was used. The test pulse, consisting of a 100 ms step to 0 mV from a holding potential of −70 mV, followed by a 100 ms voltage ramp from −70 mV to +70 mV, was applied before and after a 6 minutes compound incubation period. Test compounds were prepared by diluting DMSO stock solutions into the bath solution at 3× the final concentration and placed in the instrument in 96-well polypropylene plates. Current amplitudes were measured using the IonWorks® software. To assess compound potency, the fractional block during the voltage step to 0 mV was calculated in Microsoft® Excel (Microsoft, Redmond, Calif.), and dose-response curves were fitted with Igor Pro 4.0 (WaveMetrics, Lake Oswego, Oreg.).

SMILES | pIC50 [1] | pIC50 [2]
Cc1c([C@@H](O)CN2C[C@@H]3C[C@H]2CN3C[C@H](O)c2ccc3c(c2)C[C@@H](C)OC3=O)ccc2c1COC2=O (single isomer, unassigned) [Example 39A] | 6.35 | 6.82
Cc1c([C@@H](O)CN2C[C@@H]3C[C@H]2CN3C[C@H](O)c2ccc3c(c2)C[C@@H](C)OC3=O)ccc2c1COC2=O (single isomer, unassigned) [Example 39B] | 6.03 | 
Cc1c([C@@H](O)CN2C[C@@H]3C[C@H]2CN3CC(O)c2ccc3c(c2)C[C@H](C)OC3=O)ccc2c1COC2=O (single isomer, unassigned) [Example 40A] | 7.44 | 6.85
Cc1c([C@@H](O)CN2C[C@@H]3C[C@H]2CN3CC(O)c2ccc3c(c2)C[C@H](C)OC3=O)ccc2c1COC2=O (single isomer, unassigned) [Example 40B] | 7.13 | 
Cc1c([C@@H](O)CN2C[C@H]3C[C@@H]2CN3C[C@H](O)c2ccc3c(c2)C[C@@H](C)OC3=O)ccc2c1COC2=O (single isomer, unassigned) [Example 41A] | 7.18 | 
Cc1c([C@@H](O)CN2C[C@H]3C[C@@H]2CN3C[C@H](O)c2ccc3c(c2)C[C@@H](C)OC3=O)ccc2c1COC2=O (single isomer, unassigned) [Example 41B] | 7.48 | 
Cc1c([C@@H](O)CN2C[C@H]3C[C@@H]2CN3C[C@H](O)c2ccc3c(c2)C[C@H](C)OC3=O)ccc2c1COC2=O (single isomer, unassigned) [Example 42A] | 6.76 | 7.11
Cc1c([C@@H](O)CN2C[C@H]3C[C@@H]2CN3C[C@H](O)c2ccc3c(c2)C[C@H](C)OC3=O)ccc2c1COC2=O (single isomer, unassigned) [Example 42B] | 7.35 | 6.94
Cc1cc(S(=O)(=O)N2C[C@@H]3C[C@H]2CN3C[C@H](O)c2ccc3c(c2C)COC3=O)ccc1-n1cnnn1 [Example 14, 5-((R)-1-Hydroxy-2-((1S,4S)-5-(3-methyl-4-(1H-tetrazol-1-yl)phenylsulfonyl)-2,5-diazabicyclo[2.2.1]heptan-2-yl)ethyl)-4-methylisobenzofuran-1(3H)-one] | 6.67 | 6.57
